Test results taken from publication PMC8950700 (Pharmaceuticals, 2022).

experiment: In vivo safety study in mice (liver and kidney function, body weight); settings: uninfected mice; compounds given as 3 doses, oseltamivir 50 mg/kg, zanamivir 20 mg/kg; vs 1X PBS

| Structure (SMILES) | effect on body weight (safety, Figure S2) |
| --- | --- |
| CC(=O)OC[C@H]1O[C@@H](OCc2cn(Cc3nc4ccccc4o3)nn2)[C@H](OC(C)=O)[C@@H](OC(C)=O)[C@H]1OC(C)=O [Compound 8b, (2R,3S,4S,5R,6R)-2-(Acetoxymethyl)-6-((1-(benzo[d]oxazol-2-ylmethyl)-1H-1,2,3-triazol-4-yl)methoxy)tetrahydro-2H-pyran-3,4,5-triyl Triacetate] | slight effect on body weight |
| CC(=O)O[C@@H]1[C@@H](OC(C)=O)[C@H](OCc2cn(Cc3nc4ccccc4[nH]3)nn2)OC[C@H]1OC(C)=O [Compound 9a, (2R,3R,4S,5R,)-2-((1-((1H-Benzo[d]imidazol-2-yl)methyl)-1H-1,2,3-triazol-4-yl)methoxy)tetrahydro-2H-pyran-3,4,5-triyl Triacetate] | did not affect body weight |
| CC(=O)O[C@@H]1[C@@H](OC(C)=O)[C@H](OCc2cn(Cc3nc4ccccc4s3)nn2)OC[C@H]1OC(C)=O [Compound 9c, (2R,3R,4S,5R)-2-((1-(Benzo[d]thiazol-2-ylmethyl)-1H-1,2,3-triazol-4-yl)methoxy)tetrahydro-2H-pyran-3,4,5-triyl Triacetate] | did not affect body weight |
| CCOC(=O)C1=C[C@H](N)C(NC(C)=O)[C@H](OC(CC)CC)C1 (some centres unmarked) [oseltamivir, reference compound] | slight effect on body weight |
| CC(=O)N[C@H]1[C@H]([C@H](O)[C@H](O)CO)OC(C(=O)O)=C[C@@H]1N=C(N)N [zanamivir, reference compound] | did not affect body weight |
